Target: T1, Solute carrier family 15 member 2 (Homo sapiens, UniProt Q16348)
T1 sequence (Q16348 whole entry): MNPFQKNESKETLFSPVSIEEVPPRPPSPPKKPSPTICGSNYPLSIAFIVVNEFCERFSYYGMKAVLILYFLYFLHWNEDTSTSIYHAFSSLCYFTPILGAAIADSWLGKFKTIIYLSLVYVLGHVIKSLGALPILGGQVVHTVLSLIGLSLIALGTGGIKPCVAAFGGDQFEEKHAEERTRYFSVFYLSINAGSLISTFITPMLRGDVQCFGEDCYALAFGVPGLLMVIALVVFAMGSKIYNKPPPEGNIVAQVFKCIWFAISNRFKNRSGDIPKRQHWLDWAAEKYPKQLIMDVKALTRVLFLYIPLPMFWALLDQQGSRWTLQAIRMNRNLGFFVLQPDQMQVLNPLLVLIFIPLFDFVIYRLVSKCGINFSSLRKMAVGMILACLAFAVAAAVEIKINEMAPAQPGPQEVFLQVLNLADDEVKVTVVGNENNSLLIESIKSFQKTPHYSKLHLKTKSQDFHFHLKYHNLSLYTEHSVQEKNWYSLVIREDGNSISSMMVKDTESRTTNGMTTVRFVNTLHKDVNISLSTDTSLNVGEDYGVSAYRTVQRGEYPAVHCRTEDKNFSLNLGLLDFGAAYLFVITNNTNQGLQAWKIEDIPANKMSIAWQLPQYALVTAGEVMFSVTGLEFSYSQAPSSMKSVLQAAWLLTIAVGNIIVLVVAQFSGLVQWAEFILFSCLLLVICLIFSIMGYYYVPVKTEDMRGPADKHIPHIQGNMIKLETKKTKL
Test: Binding affinity to human PepT2 in SKTP cells
Format: ADME, cell-based

`CC(C)[C@H](N)C(=O)N1CCC[C@H]1C(=O)N1CCC[C@H]1C(=O)O` showed a Ki of 23 µM.
